# ChEMBL document CHEMBL4825662 (J Med Chem, 2021)
# Test: Intrinsic clearance in Beagle dog liver microsomes preincubated followed by NADPH addition and measured up to 45 mins by LC-MS/MS analysis
# Assay type: ADME, Canis lupus familiaris, Microsome
smiles,measurement,value
NCc1ccc2c(c1)nc(CN1C(=O)C3(CC3)c3ccc(F)cc31)n2CCCC(F)(F)F [SISUNATOVIR],intrinsic clearance,2.6 µL/min
